Here are results for 1 compound from ChEMBL document CHEMBL1136038, “Parallel solution- and solid-phase synthesis of spiropyrrolo-pyrroles as novel neurokinin receptor ligands” (Bioorg Med Chem Lett, 2002).

Amino acid sequences for entries named in this document (tags omitted).
UniProt P25103, whole entry: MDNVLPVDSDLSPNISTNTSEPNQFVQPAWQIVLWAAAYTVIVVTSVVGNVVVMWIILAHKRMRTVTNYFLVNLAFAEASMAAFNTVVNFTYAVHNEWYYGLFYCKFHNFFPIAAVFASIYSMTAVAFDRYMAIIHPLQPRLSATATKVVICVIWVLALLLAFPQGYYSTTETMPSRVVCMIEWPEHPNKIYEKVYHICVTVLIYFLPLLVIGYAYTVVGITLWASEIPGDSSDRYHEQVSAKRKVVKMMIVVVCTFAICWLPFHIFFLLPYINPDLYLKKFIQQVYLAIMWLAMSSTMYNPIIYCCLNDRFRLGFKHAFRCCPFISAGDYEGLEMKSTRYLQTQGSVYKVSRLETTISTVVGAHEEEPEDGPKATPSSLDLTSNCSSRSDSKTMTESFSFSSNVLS

The assay concerns the target Substance-P receptor (Homo sapiens, UniProt P25103). In words: Affinity for human Tachykinin receptor 1 expressed in CHO cells. It counts as cell-based.

For `CC(=O)N1CCC2(CC1)C1C(=O)N(c3ccccc3)C(=O)C1CN2C(=O)c1cc(C(F)(F)F)cc(C(F)(F)F)c1` (stereo unspecified), the Ki was 1.07 µM.
